What was measured:
[1] = target: recombinant IL-17A (produced in-house in EBNA cells); experiment: cell-based or functional assay
[2] = target: recombinant TNF (Thermo Fisher); experiment: cell-based or functional assay
[3] = target: cynomolgus TNF (cynomolgus) (UniProt P79337); experiment: SPR (BIAcore T200), construct captured by anti-human IgG Fc, antigen injected
[4] = target: cynomolgus IL-17A (cynomolgus); experiment: as above
[5] = target: human IL-17A (human) (UniProt Q16552); experiment: as above
[6] = target: human TNF (human) (UniProt P01375); experiment: as above

Substance	Apparent IC50 for the inhibition of IL-17A/TNF-induced IL-6 production in Normal Human Dermal Fibroblasts [1] [nM]	Apparent IC50 for the inhibition of IL-17A/TNF-induced IL-6 production in Normal Human Dermal Fibroblasts [2] [nM]	Kd [3] [nM]	koff [3] [s⁻¹]	kon [3] [M⁻¹ s⁻¹]	Kd [4] [nM]	koff [4] [s⁻¹]	kon [4] [M⁻¹ s⁻¹]	Kd [5] [nM]	koff [5] [s⁻¹]	kon [5] [M⁻¹ s⁻¹]	Kd [6] [nM]	koff [6] [s⁻¹]	kon [6] [M⁻¹ s⁻¹]
HC2C1 (bispecific construct, Fynomer 2C1 at the C-terminus of the heavy chain of the anti-TNF antibody) (bispecific antibody)	0.021	0.021	0.1	8.1e-05	820000	–	–	–	–	–	–	–	–	–
HC2C1 (bispecific construct, Fynomer 2C1 at the C-terminus of the heavy chain of the anti-TNF antibody) (bispecific antibody; other documents disagree on this pair)	–	–	–	–	–	0.448	0.00016	360000	0.252	6.6e-05	260000	0.07	2.8e-05	390000
LC2C1 (bispecific construct, Fynomer 2C1 at the C-terminus of the light chain of the anti-TNF antibody) (bispecific antibody)	0.01	0.01	0.14	–	630000	–	–	–	–	–	–	–	–	–
LC2C1 (bispecific construct, Fynomer 2C1 at the C-terminus of the light chain of the anti-TNF antibody) (bispecific antibody; other documents disagree on this pair)	–	–	–	–	–	0.398	–	120000	0.268	–	230000	–	–	–

— patent publication EP2597102A1
